Assays:
[1] = molecular target: Cholinesterase (Homo sapiens, UniProt P06276); assay: ASSAY_NAME: ChEMBL_1590872 (CHEMBL3830393) DESCRIPTION: Inhibition of human plasma BChE assessed as butyrylthiocholine hydrolysis preincubated for 10 mins followed by addition of substrate measured after 2 mins by spectrophotometric method
[2] = molecular target: Acetylcholinesterase (Homo sapiens, UniProt P22303); assay: ASSAY_NAME: ChEMBL_1590871 (CHEMBL3830392) DESCRIPTION: Inhibition of human AChE assessed as acetylthiocholine hydrolysis preincubated for 10 mins followed by addition of substrate measured after 2 mins by spectrophotometric method

Amino acid sequences for entries named in this document (tags omitted). Residues count along the entry.
UniProt P06276, 29-602 limits assumed: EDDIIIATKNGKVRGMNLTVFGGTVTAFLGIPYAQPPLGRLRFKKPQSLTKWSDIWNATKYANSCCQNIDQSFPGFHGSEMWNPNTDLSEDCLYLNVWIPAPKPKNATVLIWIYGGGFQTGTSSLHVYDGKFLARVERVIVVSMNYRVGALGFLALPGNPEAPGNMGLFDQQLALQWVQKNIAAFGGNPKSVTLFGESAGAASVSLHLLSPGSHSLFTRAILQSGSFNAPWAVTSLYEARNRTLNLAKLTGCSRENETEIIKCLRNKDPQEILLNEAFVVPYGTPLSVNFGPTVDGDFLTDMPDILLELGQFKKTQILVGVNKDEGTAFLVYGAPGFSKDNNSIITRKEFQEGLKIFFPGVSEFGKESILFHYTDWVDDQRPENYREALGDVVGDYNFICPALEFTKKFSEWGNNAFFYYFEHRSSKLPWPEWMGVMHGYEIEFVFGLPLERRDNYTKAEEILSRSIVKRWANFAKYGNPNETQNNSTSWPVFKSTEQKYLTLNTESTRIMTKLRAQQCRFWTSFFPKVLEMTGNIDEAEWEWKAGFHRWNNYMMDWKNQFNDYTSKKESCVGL
UniProt P22303, 32-614 limits assumed: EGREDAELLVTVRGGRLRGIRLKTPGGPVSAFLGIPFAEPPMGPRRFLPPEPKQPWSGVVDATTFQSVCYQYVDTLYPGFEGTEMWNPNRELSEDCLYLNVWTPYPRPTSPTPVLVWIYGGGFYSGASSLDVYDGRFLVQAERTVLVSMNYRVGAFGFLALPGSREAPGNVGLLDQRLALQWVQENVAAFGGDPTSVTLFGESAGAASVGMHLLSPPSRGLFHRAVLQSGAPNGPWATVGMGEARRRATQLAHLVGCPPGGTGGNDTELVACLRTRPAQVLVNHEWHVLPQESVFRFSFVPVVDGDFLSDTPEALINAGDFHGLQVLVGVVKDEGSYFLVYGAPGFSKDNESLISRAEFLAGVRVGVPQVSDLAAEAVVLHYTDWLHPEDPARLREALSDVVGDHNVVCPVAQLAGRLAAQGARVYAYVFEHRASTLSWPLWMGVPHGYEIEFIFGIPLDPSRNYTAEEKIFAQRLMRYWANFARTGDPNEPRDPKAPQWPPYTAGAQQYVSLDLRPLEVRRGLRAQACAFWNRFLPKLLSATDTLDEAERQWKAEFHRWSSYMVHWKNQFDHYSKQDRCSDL

SMILES	IC50 [1]	IC50 [2]
CCCC1OCc2c[n+](C)c(C)c(OC(=O)N(C)C)c2CO1 (centres undefined)	400 µM	140 µM
CCC1OCc2c[n+](C)c(C)c(OC(=O)N(C)C)c2CO1 (centres undefined)	800 µM	280 µM
Cc1c(OC(=O)N(C)C)c2c(c[n+]1C)COC(C)OC2 (centres undefined)	1030 µM	150 µM
Cc1c(OC(=O)N(C)C)c2c(c[n+]1C)COC(C(C)C)OC2 (centres undefined)	900 µM	260 µM
Cc1c(OC(=O)N(C)C)c2c(c[n+]1C)COC(C(C)(C)C)OC2 (centres undefined)	310 µM	110 µM
Cc1c(OC(=O)N(C)C)c2c(c[n+]1C)COCOC2	400 µM	130 µM
Cc1c(OC(=O)N(C)C)c2c(c[n+]1C)COC(C)(C)OC2	1190 µM	500 µM

From BindingDB's records for 27377327
